From PubChem BioAssay (NCI)
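Results reflect a 48-hour exposure of cells in 96-well plates to compound at five concentrations. The concentration for 50% growth inhibition is given as GI50. The concentration for full growth arrest is given as TGI.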

What was measured:
Assay in all cases: inhibition of tumour cell growth, NCI panel, 48 h
SF-268 CNS = test system: SF-268 CNS
HCT-116 colon = test system: HCT-116 colon
SK-MEL-2 melanoma = test system: SK-MEL-2 melanoma
SF-295 CNS = test system: SF-295 CNS
A549 NSCLC = test system: A549 NSCLC
SR leukemia = test system: SR leukemia
COLO 205 colon = test system: COLO 205 colon
MDA-MB-435 = test system: MDA-MB-435
CAKI-1 renal = test system: CAKI-1 renal
NCI-H226 lung = test system: NCI-H226 lung
HOP-92 NSCLC = test system: HOP-92 NSCLC
OVCAR-8 ovarian = test system: OVCAR-8 ovarian
K-562 leukemia = test system: K-562 leukemia
HCC-2998 colon = test system: HCC-2998 colon
CCRF-CEM leukemia = test system: CCRF-CEM leukemia
T-47D breast = test system: T-47D breast
LOX IMVI melanoma = test system: LOX IMVI melanoma
SNB-75 CNS = test system: SNB-75 CNS
SW-620 colon = test system: SW-620 colon
SN12C renal = test system: SN12C renal
NCI-H23 lung = test system: NCI-H23 lung
BT-549 breast = test system: BT-549 breast
HOP-62 NSCLC = test system: HOP-62 NSCLC
OVCAR-3 ovarian = test system: OVCAR-3 ovarian
RPMI-8226 leukemia = test system: RPMI-8226 leukemia
UACC-257 melanoma = test system: UACC-257 melanoma
HCT-15 colon = test system: HCT-15 colon
M14 melanoma = test system: M14 melanoma
HT29 colon = test system: HT29 colon
ACHN renal = test system: ACHN renal
OVCAR-5 ovarian = test system: OVCAR-5 ovarian
PC-3 prostate = test system: PC-3 prostate
HL-60(TB) leukemia = test system: HL-60(TB) leukemia
MCF7 breast = test system: MCF7 breast
A498 renal = test system: A498 renal
HS 578T breast = test system: HS 578T breast
NCI-H460 lung = test system: NCI-H460 lung
786-0 renal = test system: 786-0 renal
NCI/ADR-RES ovarian = test system: NCI/ADR-RES ovarian
KM12 colon = test system: KM12 colon
SK-MEL-5 melanoma = test system: SK-MEL-5 melanoma
MDA-MB-231 breast = test system: MDA-MB-231 breast
TK-10 renal = test system: TK-10 renal
NCI-H522 lung = test system: NCI-H522 lung
NCI-H322M lung = test system: NCI-H322M lung
UO-31 renal = test system: UO-31 renal
RXF 393 renal = test system: RXF 393 renal
SK-MEL-28 melanoma = test system: SK-MEL-28 melanoma
SK-OV-3 ovarian = test system: SK-OV-3 ovarian
MOLT-4 leukemia = test system: MOLT-4 leukemia
OVCAR-4 ovarian = test system: OVCAR-4 ovarian
EKVX NSCLC = test system: EKVX NSCLC
UACC-62 melanoma = test system: UACC-62 melanoma
U251 CNS = test system: U251 CNS
SF-539 CNS = test system: SF-539 CNS
DU-145 prostate = test system: DU-145 prostate
MDA-N = test system: MDA-N

Compound `O=P1(N(CCCl)CCCl)Oc2ccc(Cl)cc2C(C(Cl)(Cl)Cl)O1` (centres undefined) has a GI50 (SF-268 CNS) of 15.9 µM, a TGI (SF-268 CNS) of 30 µM and a GI50 (HCT-116 colon) of 12.8 µM. For the same compound, the TGI (HCT-116 colon) was 25.4 µM, the GI50 (SK-MEL-2 melanoma) was 17.7 µM and the TGI (SK-MEL-2 melanoma) was 33 µM. For the same compound, the GI50 (SF-295 CNS) was 13 µM, the TGI (SF-295 CNS) was 25.9 µM and the GI50 (A549 NSCLC) was 13.1 µM. For the same compound, the TGI (A549 NSCLC) was 29.1 µM, the GI50 (SR leukemia) was 5.26 µM and the TGI (SR leukemia) was greater than 100 µM. It also gave a GI50 (COLO 205 colon) of 17.7 µM, a TGI (COLO 205 colon) of 31.5 µM and a GI50 (MDA-MB-435) of 11.9 µM. It also gave a TGI (MDA-MB-435) of 24.2 µM, a GI50 (CAKI-1 renal) of 19.2 µM and a TGI (CAKI-1 renal) of 34.3 µM. For the same compound, the GI50 (NCI-H226 lung) was 16.5 µM, the TGI (NCI-H226 lung) was 31.8 µM and the GI50 (HOP-92 NSCLC) was 15.3 µM. It also gave a TGI (HOP-92 NSCLC) of 29.3 µM, a GI50 (OVCAR-8 ovarian) of 14.3 µM and a TGI (OVCAR-8 ovarian) of 27.5 µM. For the same compound, the GI50 (K-562 leukemia) was 4.53 µM, the TGI (K-562 leukemia) was 65.5 µM and the GI50 (HCC-2998 colon) was 6.33 µM. The TGI (HCC-2998 colon) was 17.7 µM, the GI50 (CCRF-CEM leukemia) was 9.62 µM and the TGI (CCRF-CEM leukemia) was 64.8 µM. The GI50 (T-47D breast) was 20.9 µM, the TGI (T-47D breast) was 42.4 µM and the GI50 (LOX IMVI melanoma) was 13 µM. For the same compound, the TGI (LOX IMVI melanoma) was 26.8 µM, the GI50 (SNB-75 CNS) was 12.7 µM and the TGI (SNB-75 CNS) was 27.8 µM. It also gave a GI50 (SW-620 colon) of 14.7 µM, a TGI (SW-620 colon) of 28.3 µM and a GI50 (SN12C renal) of 15.2 µM. It also gave a TGI (SN12C renal) of 28.9 µM, a GI50 (NCI-H23 lung) of 15.1 µM and a TGI (NCI-H23 lung) of 30.6 µM. For the same compound, the GI50 (BT-549 breast) was 14.6 µM, the TGI (BT-549 breast) was 27.7 µM and the GI50 (HOP-62 NSCLC) was 12.1 µM. The TGI (HOP-62 NSCLC) was 24.6 µM, the GI50 (OVCAR-3 ovarian) was 14.4 µM and the TGI (OVCAR-3 ovarian) was 27.5 µM. For the same compound, the GI50 (RPMI-8226 leukemia) was 5.98 µM, the TGI (RPMI-8226 leukemia) was 54.3 µM and the GI50 (UACC-257 melanoma) was 14.8 µM. The TGI (UACC-257 melanoma) was 28.1 µM, the GI50 (HCT-15 colon) was 13.7 µM and the TGI (HCT-15 colon) was 27 µM. The GI50 (M14 melanoma) was 15.6 µM, the TGI (M14 melanoma) was 29 µM and the GI50 (HT29 colon) was 14.4 µM. It also gave a TGI (HT29 colon) of 31.2 µM, a GI50 (ACHN renal) of 14.6 µM and a TGI (ACHN renal) of 28.2 µM. It also gave a GI50 (OVCAR-5 ovarian) of 24.4 µM, a TGI (OVCAR-5 ovarian) of 39.7 µM and a GI50 (PC-3 prostate) of 11.8 µM. It also gave a TGI (PC-3 prostate) of 24.3 µM, a GI50 (HL-60(TB) leukemia) of 5.52 µM and a TGI (HL-60(TB) leukemia) greater than 100 µM. For the same compound, the GI50 (MCF7 breast) was 13.1 µM, the TGI (MCF7 breast) was 26 µM and the GI50 (A498 renal) was 17.5 µM. The TGI (A498 renal) was 31.3 µM, the GI50 (HS 578T breast) was 25 µM and the TGI (HS 578T breast) was 92.8 µM. The GI50 (NCI-H460 lung) was 12.9 µM, the TGI (NCI-H460 lung) was 26.2 µM and the GI50 (786-0 renal) was 14.1 µM. The TGI (786-0 renal) was 27.5 µM, the GI50 (NCI/ADR-RES ovarian) was 12.7 µM and the TGI (NCI/ADR-RES ovarian) was 29.2 µM. For the same compound, the GI50 (KM12 colon) was 14.2 µM, the TGI (KM12 colon) was 27.4 µM and the GI50 (SK-MEL-5 melanoma) was 11.3 µM. The TGI (SK-MEL-5 melanoma) was 23.6 µM, the GI50 (MDA-MB-231 breast) was 19.9 µM and the TGI (MDA-MB-231 breast) was 38.7 µM. For the same compound, the GI50 (TK-10 renal) was 21.9 µM, the TGI (TK-10 renal) was 36.4 µM and the GI50 (NCI-H522 lung) was 12.4 µM. For the same compound, the TGI (NCI-H522 lung) was 25.5 µM, the GI50 (NCI-H322M lung) was 15.7 µM and the TGI (NCI-H322M lung) was 29.3 µM. The GI50 (UO-31 renal) was 14.8 µM, the TGI (UO-31 renal) was 28 µM and the GI50 (RXF 393 renal) was 14.9 µM. The TGI (RXF 393 renal) was 30.8 µM, the GI50 (SK-MEL-28 melanoma) was 16.9 µM and the TGI (SK-MEL-28 melanoma) was 30.9 µM. For the same compound, the GI50 (SK-OV-3 ovarian) was 14.9 µM, the TGI (SK-OV-3 ovarian) was 28.1 µM and the GI50 (MOLT-4 leukemia) was 9.54 µM. It also gave a TGI (MOLT-4 leukemia) of 56.2 µM, a GI50 (OVCAR-4 ovarian) of 16.9 µM and a TGI (OVCAR-4 ovarian) of 39.3 µM. For the same compound, the GI50 (EKVX NSCLC) was 17.3 µM, the TGI (EKVX NSCLC) was 31 µM and the GI50 (UACC-62 melanoma) was 11.2 µM. It also gave a TGI (UACC-62 melanoma) of 23.7 µM, a GI50 (U251 CNS) of 18.3 µM and a TGI (U251 CNS) of 32.2 µM. The GI50 (SF-539 CNS) was 17.3 µM, the TGI (SF-539 CNS) was 31.2 µM and the GI50 (DU-145 prostate) was 14.8 µM. The TGI (DU-145 prostate) was 28 µM, the GI50 (MDA-N) was 10.6 µM and the TGI (MDA-N) was 22.5 µM.
